Assay results taken from US7595158B2, “Bcl2L12 polypeptide activators and inhibitors” (Dana-Farber Cancer Institute, Inc., priority 2003, dated 2009).

Test system: p53 mediated transcription
Assay: p53 luciferase reporter (PG13) in Ink4a/Arf deficient astrocytes
Assay type: cell-based
Settings: normalized to βGal, vs vector control
Text: Activation of the p53 transcription factor in response to a variety of cellular stresses, including DNA damage and oncogene activation, initiates a program of gene expression that blocks the proliferative expansion of damaged cells. To asses the effect of Bcl2L12 polypeptides on p53 mediated transcription, Ink4a/Arf deficient astrocytes ectopically expressing a Bcl2L12-V5 polypeptide were transfected with increasing amounts of nucleic acid encoding a p53 polypeptide and a luciferase construct bearing a dimerized p53 binding site in its promoter (PG13). […] XIAP, a caspase-9 inhibitor, had no effect on the transcriptional activity of p53.

XIAP: a caspase-9 inhibitor [reference compound]
transcriptional activity of p53 (reporter activity): no effect
